Experimental data from USRE49825E1, “Piperidinyl nociceptin receptor compounds” (Astraea Therapeutics, LLC, priority 2015, dated 2024).
Like-named read-outs stand apart in the source and are kept apart here.

The chains behind the UniProt entries cited, without tags or fusion partners. Where a name states a change or a piece, a line headed by the entry shows the natural chain unless it says otherwise.
UniProt P35372, whole entry, looked up: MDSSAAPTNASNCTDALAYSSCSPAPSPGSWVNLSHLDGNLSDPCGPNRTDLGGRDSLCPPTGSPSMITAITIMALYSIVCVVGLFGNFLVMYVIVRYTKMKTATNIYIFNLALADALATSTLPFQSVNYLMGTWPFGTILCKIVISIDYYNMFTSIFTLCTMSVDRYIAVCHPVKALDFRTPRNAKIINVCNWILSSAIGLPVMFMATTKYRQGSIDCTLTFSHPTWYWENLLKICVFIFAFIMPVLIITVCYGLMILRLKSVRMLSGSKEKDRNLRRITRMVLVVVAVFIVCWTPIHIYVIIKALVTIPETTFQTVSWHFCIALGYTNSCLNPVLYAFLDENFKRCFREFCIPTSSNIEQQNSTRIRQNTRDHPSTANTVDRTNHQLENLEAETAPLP
UniProt P41146: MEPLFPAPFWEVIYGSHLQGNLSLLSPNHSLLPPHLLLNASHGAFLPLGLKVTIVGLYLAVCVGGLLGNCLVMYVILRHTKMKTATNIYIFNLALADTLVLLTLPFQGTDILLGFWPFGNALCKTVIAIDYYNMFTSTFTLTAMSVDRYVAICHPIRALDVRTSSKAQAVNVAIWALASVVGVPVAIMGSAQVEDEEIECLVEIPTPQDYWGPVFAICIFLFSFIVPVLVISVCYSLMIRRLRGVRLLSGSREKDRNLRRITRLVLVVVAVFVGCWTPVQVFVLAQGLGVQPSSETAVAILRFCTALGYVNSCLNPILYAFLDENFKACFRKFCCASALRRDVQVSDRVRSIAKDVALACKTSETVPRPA
UniProt P41145: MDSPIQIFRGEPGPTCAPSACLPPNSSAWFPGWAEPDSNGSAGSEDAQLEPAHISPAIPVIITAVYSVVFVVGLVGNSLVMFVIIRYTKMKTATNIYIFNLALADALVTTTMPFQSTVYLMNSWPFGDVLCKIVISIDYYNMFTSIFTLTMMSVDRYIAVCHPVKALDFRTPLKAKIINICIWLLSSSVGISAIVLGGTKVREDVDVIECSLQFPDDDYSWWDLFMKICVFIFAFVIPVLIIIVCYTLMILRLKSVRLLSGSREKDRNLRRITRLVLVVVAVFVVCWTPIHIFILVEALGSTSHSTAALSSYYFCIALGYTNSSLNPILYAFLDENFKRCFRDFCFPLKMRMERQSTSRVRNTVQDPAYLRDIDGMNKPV

Columns and labels:
mu opioid receptor = mu opioid receptor (Homo sapiens, UniProt P35372); experiment: Radioligand binding assay, [3H]DAMGO, membranes of CHO cells transfected with human mu opioid receptor
[1] = molecular target: nociceptin (NOP) receptor (Homo sapiens, UniProt P41146); experiment: Radioligand binding assay, [3H]N/OFQ, membranes of CHO cells transfected with human NOP receptor
kappa opioid receptor = kappa opioid receptor (Homo sapiens, UniProt P41145); experiment: Radioligand binding assay, [3H]U69593, membranes of CHO cells transfected with human kappa opioid receptor
[2] = read-out: Receptor Binding Ki (nM) μ, Compounds of Formula (IV), CHO cell membranes
[3] = read-out: Receptor Binding Ki (nM) NOP, Compounds of Formula (IV), CHO cell membranes
[4] = read-out: Receptor Binding Ki (nM) κ, Compounds of Formula (IV), CHO cell membranes

Row | Compound | Ki (mu opioid receptor; [2]) [nM] | Ki [1, 3] [nM] | Ki (kappa opioid receptor; [4]) [nM] | Ki (mu opioid receptor; read-out: Receptor Binding Ki (nM) μ, Compounds of Formula (II), CHO cell membranes) [nM] | Ki ([1]; read-out: Receptor Binding Ki (nM) NOP, Compounds of Formula (II), CHO cell membranes) [nM] | Ki (kappa opioid receptor; read-out: Receptor Binding Ki (nM) κ, Compounds of Formula (II), CHO cell membranes) [nM]
1 | Cc1ccc2c(c1)CNC(=O)C21CCN([C@H]2CC[C@@H](C(C)C)CC2)CC1 (relative stereo) | 150 to 5000 | 15 to 150 | 150 to 5000 |  |  | 
2 | CC(C)[C@H]1CC[C@@H](N2CCC3(CC2)C(=O)N(CCNC(N)=O)Cc2ccccc23)CC1 (relative stereo) | 150 to 5000 | 15 to 150 | 150 to 5000 |  |  | 
3 | CC(C)[C@H]1CC[C@@H](N2CCC3(CC2)C(=O)N(CCN)Cc2cc(-c4ccccc4)ccc23)CC1 (relative stereo) | 150 to 5000 | 150 to 5000 | 150 to 5000 |  |  | 
4 | CC(C)C1CCC(N2CCC3(CC2)C(=O)N(CCNC(=O)[C@H](N)CCCNC(=N)N)Cc2ccccc23)CC1 (stereo partly drawn) | 15 to 150 | < 15 | 15 to 150 |  |  | 
5 | CC(C)[C@H]1CC[C@@H](N2CCC3(CC2)C(=O)N(CCOCc2ccccc2)Cc2ccccc23)CC1 (relative stereo) | 15 to 150 | < 15 | 15 to 150 |  |  | 
6 | COC(=O)CN1Cc2ccccc2C2(CCN([C@H]3CC[C@@H](C(C)C)CC3)CC2)C1=O (relative stereo) | 150 to 5000 | 15 to 150 | 150 to 5000 |  |  | 
7 | CC(C)[C@H]1CC[C@@H](N2CCC3(CC2)C(=O)N(CCN)Cc2cc(Br)ccc23)CC1 (relative stereo) | 15 to 150 | < 15 |  |  |  | 
8 | CC(C)[C@H]1CC[C@@H](N2CCC3(CC2)C(=O)N(CCC(=O)OC(C)(C)C)Cc2ccccc23)CC1 | 15 to 150 | 15 to 150 | 150 to 5000 |  |  | 
9 | CC(C)[C@H]1CC[C@@H](N2CCC3(CC2)C(=O)N(CC(=O)O)Cc2ccccc23)CC1 (relative stereo) | 150 to 5000 | 150 to 5000 | 150 to 5000 |  |  | 
10 | CC(C)[C@H]1CC[C@@H](N2CCC3(CC2)C(=O)N(CCNC(=N)N)Cc2ccccc23)CC1 (relative stereo) | 15 to 150 | < 15 | 15 to 150 |  |  | 
11 | O=C1NCc2ccccc2C12CCN([C@H]1CC[C@@H](C3CCCCC3)CC1)CC2 | 15 to 150 | 150 to 5000 | 150 to 5000 |  |  | 
12 | CC(C)[C@H]1CC[C@@H](N2CCC3(CC2)C(=O)N(CCNS(N)(=O)=O)Cc2ccccc23)CC1 | < 15 | < 15 | 15 to 150 |  |  | 
13 | CC(C)[C@H]1CC[C@@H](N2CCC3(CC2)C(=O)N(CCO)Cc2ccccc23)CC1 (relative stereo) | 15 to 150 | < 15 | 15 to 150 |  |  | 
14 | CC(C)[C@H]1CC[C@@H](N2CCC3(CC2)C(=O)N(CC#N)Cc2ccccc23)CC1 (relative stereo) | 15 to 150 | < 15 | 150 to 5000 |  |  | 
15 | CC(=O)OCCN1Cc2ccccc2C2(CCN([C@H]3CC[C@@H](C(C)C)CC3)CC2)C1=O (relative stereo) | 15 to 150 | 15 to 150 | 150 to 5000 |  |  | 
16 | CC(C)[C@H]1CC[C@@H](N2CCC3(CC2)C(=O)N(CC(N)=O)Cc2cc(-c4ccccc4)ccc23)CC1 |  | > 5000 |  |  |  | 
17 | N-(2-(1′- (4,4-dimethyl- cyclohexyl)-3- oxo-1H-spiro [isoquinoline- 4,4′-piperidin]- 2(3H)-yl) ethyl)amino- sulfonamide | 15 to 150 | 15 to 150 | 150 to 5000 |  |  | 
18 | CC(C)[C@H]1CC[C@@H](N2CCC3(CC2)C(=O)N(CCNC(N)=S)Cc2ccccc23)CC1 (relative stereo) | 15 to 150 | < 15 | 15 to 150 |  |  | 
19 | CC(C)[C@H]1CC[C@@H](N2CCC3(CC2)C(=O)N(CCNS(C)(=O)=O)Cc2ccccc23)CC1 (relative stereo) | 15 to 150 | < 15 | 150 to 5000 |  |  | 
20 | CC(C)[C@H]1CC[C@@H](N2CCC3(CC2)C(=O)N(CC(N)=O)Cc2ccccc23)CC1 | 150 to 5000 | 15 to 150 | 150 to 5000 |  |  | 
21 | N-(((1-(1-(cis-4- isopropylcyclohexyl) piperidin-4-yl)-1H- indol-3- yl)methyl) carbamothioyl) benzamide |  |  |  | 150 to 5000 | 150 to 5000 | > 5000
22 | CC(C)[C@H]1CC[C@@H](N2CCC3(CC2)C(=O)N(CCNC=O)Cc2ccccc23)CC1 (relative stereo) | 15 to 150 | 15 to 150 | 15 to 150 |  |  | 
23 | CC(C)[C@H]1CC[C@@H](N2CCC3(CC2)C(=O)NCc2cc(Br)ccc23)CC1 (relative stereo) | 15 to 150 | 15 to 150 | 150 to 5000 |  |  | 
24 | CC(C)[C@H]1CC[C@@H](N2CCC3(CC2)C(=O)N(CCN)Cc2ccccc23)CC1 (relative stereo) | 15 to 150 | < 15 | 150 to 5000 |  |  | 
25 | CC(C)OC(=O)CN1Cc2ccccc2C2(CCN([C@H]3CC[C@@H](C(C)C)CC3)CC2)C1=O (relative stereo) | 150 to 5000 | 15 to 150 | 150 to 5000 |  |  | 
26 | COCCN1Cc2ccccc2C2(CCN([C@H]3CC[C@@H](C(C)C)CC3)CC2)C1=O (relative stereo) | 150 to 5000 | 15 to 150 | 150 to 5000 |  |  | 
27 | CN1Cc2ccccc2C2(CCN([C@H]3CC[C@@H](C4CCCCC4)CC3)CC2)C1=O | 150 to 5000 | 15 to 150 | 150 to 5000 |  |  | 
